# Source: the NIST ThermoML archive (doi:10.1021/je100410k)
# Test: activity coefficient (dimensionless); of the first substance listed, at infinite dilution; xn = mol fraction of the nth substance listed
# Conditions: 101 kPa, Liquid, Chromatography, x1 = 0
compound,measurement,setting,value
CCCCOCCCC [dibutyl ether] + CCCCn1cc[n+](C)c1.Cc1ccc(S(=O)(=O)[O-])cc1,activity coefficient,338.2 K,29.2 ± 2
same,activity coefficient,348.2 K,27.7 ± 1.9
same,activity coefficient,358.2 K,26.3 ± 1.8
same,activity coefficient,368.2 K,25.2 ± 1.7

# Numbers after ± are expanded uncertainties.
